Results on one compound are retold here after PubChem BioAssay AID504845 (National Center for Advancing Translational Sciences (NCATS), 2011).

Amino acid sequences for entries named in this document (tags omitted).
UniProt P49798, whole entry: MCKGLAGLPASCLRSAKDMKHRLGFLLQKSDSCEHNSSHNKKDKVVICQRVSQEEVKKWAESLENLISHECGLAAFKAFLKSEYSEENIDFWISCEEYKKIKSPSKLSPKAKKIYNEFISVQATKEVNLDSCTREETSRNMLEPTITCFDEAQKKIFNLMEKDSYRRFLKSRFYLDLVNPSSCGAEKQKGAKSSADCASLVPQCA

This is a selection; strong and weak results do not stand in their true shares. Inconclusive results are not listed. Activity calls are given as the source filed them. Calls come from the whole dose curve; as a rule, active = well fitted inhibition curve with a large enough effect; inconclusive = small, poorly fitted or top-dose-only effect; inactive = no such curve, though single readings can be large or run the other way.
% is set by controls: 0 for no effect and ±100 for the full control effect.

For this experiment, the target named is Regulator of G-protein signaling 4 (Homo sapiens) (UniProt P49798). The experiment is described as follows: Inhibitors of Regulator of G Protein Signaling (RGS) 4: qHTS. Note: nearly all actives have a fitted effect of over 75% in size. As to conditions: Transcreener GDP fluorescence polarization, RGS4-accelerated GTP hydrolysis; at 114 µM (top of the series). An excerpt: G-protein-coupled receptors (GPCRs) are well-established targets for drug discovery and development. Members of the "regulator of G-protein signaling" (RGS)-protein superfamily have recently emerged as critical modulators of specific GPCR signaling pathways. […] Combining specific RGS domain inhibitors with existing GPCR agonists should potentiate cellular responses and could also increase the specificity of action of existing therapeutics. Small molecule modulators of RGS domain activity should also have clinical utility in inhibiting or potentiating the actions of endogenous GPCR agonists. In particular, the diversity of RGS proteins with highly localized and dynamically regulated distributions in the human brain makes this family of proteins attractive targets for pharmacotherapy of central nervous system (CNS) disorders such as Parkinson's disease, schizophrenia, and anxiety. […]
Two microliters of 500nM (2x working concentration) is dispensed into black medium-binding solid-bottom Kalypsys plates. […] An initial fluorescent polarization read (620 nm/688 nm) is performed on the Envision before the plate is incubated for 90 minutes at 30 deg C at a relative humidity of 80%. The plate is once more centrifuged at 1000 RPM for 15 seconds and another Envision fluorescent polarization (620 nm/688 nm) read is carried out.
Consider `CP(=O)(Nc1cccc(Br)c1)Oc1ccccc1` (stereo unspecified), for which the activity change, negative = inhibition was inactive: -3.9%.
